Source: US3989835A, “Method of using 6-substituted amino phenyl-2,3,5,6-tetra-hydro[2,1-b]thiazoles for controlling gastrointestinal nematodes” (American Cyanamid Company, priority 1974, dated 1976)

Assays:
in vivo [1] = details: for Dead/Total: mice
From the text: Data on the acute oral toxicity to mice of various single oral doses of the above compounds and several analogs were obtained by conventional procedures, (Table IX hereinafter).

in vivo [2] = details: for MTD: dog, Maximum Non-Lethal Dose for Dog
Experimental: Dogs infected with mature adult whipworms Trichuris vulpis were treated with various single or double doses of unsubstituted or substituted tetramisole analogs by the oral or subcutaneous route (Table XI hereinafter). Whipworms passed in the feces were collected for several days, and the whipworms still present determined at necropsy. Percent efficacy was determined in these "critical" tests. […] Trichuris is a type of nematode refactory to treatment with most prior anthelmintics at well tolerated doses. Taxonomically allied nematodes, e.g., Trichinella and Capillaria are also refractory to most anthelmintics.

| SMILES | Approx. LD50 /ED50 (in vivo [1]; chemotherapeutic index, mouse oral, N. dubius, Table IX) | LD50 (in vivo [1]; mouse, in vivo, po, Approx. LD50) | Dead/Total (in vivo [1]; single oral dose 100 Mg./Kg.) | Dead/Total (in vivo [1]; single oral dose 150 Mg./Kg.) | Dead/Total (in vivo [1]; single oral dose 200 Mg./Kg.) | Dead/Total (in vivo [1]; single oral dose 300 Mg./Kg.) | MTD (in vivo [2]; po) | MTD (in vivo [2]; sc) | Maximum Non-Lethal Dose for Dog, SC (in vivo [2]; sc) |
| --- | --- | --- | --- | --- | --- | --- | --- | --- | --- |
| c1ccc(C2CN3CCSC3=N2)cc1 (racemic) [dl-tetramisole, dl-6-phenyl-2,3,5,6-tetrahydroimidazo[2,1-b]thiazole, reference compound] | 19 | 175 mg/kg | 1/10 | 8/30 | 15/20 | 10/10 | > 20 mg/kg | 25 mg/kg |  |
| c1ccc(C2CN3CCSC3=N2)cc1 (stereo not drawn) [l H, l-6-phenyl-2,3,5,6,-tetrahydroimidazo[2,1-b]thiazole, reference compound] |  |  |  |  |  |  |  |  | 30 Mg./Kg. |
